# Structures can show the parent of a compound that is named as a salt. Where two headings read alike, the source gives them in different places.
# Protein sequences, listed by entry. Tags and fused reporters are not part of them. Lines headed by an entry give the natural chain unless they say otherwise; changes in a name come on top.
# UniProt P11229: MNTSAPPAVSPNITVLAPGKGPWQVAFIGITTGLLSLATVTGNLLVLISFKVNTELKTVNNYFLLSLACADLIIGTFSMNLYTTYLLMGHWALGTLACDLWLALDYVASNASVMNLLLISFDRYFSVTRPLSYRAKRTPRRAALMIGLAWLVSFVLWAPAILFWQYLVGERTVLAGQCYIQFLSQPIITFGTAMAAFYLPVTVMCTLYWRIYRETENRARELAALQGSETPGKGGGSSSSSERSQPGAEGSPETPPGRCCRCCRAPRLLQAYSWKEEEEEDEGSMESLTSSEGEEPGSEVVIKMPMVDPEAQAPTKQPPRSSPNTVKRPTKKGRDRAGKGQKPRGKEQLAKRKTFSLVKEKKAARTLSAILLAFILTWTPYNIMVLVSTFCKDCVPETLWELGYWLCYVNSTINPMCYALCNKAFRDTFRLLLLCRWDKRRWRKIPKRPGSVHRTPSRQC
# UniProt P20309, whole entry: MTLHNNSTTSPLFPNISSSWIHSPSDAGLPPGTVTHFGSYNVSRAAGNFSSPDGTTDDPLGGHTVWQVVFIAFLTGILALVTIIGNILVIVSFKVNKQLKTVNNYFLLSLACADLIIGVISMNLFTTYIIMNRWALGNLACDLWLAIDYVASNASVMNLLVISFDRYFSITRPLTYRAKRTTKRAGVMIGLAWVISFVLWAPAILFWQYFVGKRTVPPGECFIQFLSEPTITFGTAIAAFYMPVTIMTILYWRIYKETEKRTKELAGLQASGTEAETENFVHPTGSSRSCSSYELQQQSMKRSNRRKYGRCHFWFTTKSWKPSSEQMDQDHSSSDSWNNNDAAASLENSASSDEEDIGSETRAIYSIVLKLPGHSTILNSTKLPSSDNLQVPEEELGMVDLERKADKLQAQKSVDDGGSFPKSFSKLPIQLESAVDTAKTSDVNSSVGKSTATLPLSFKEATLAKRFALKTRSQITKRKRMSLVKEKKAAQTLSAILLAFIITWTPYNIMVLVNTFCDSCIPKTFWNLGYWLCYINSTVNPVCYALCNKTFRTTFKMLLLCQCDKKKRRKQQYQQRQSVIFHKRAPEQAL
# Assays:
# M1 receptor = molecular target: T1, M1 receptor (Homo sapiens, UniProt P11229); experiment: DMR assay, antagonism of acetylcholine in CHO-K1 cells stably transfecting the M1 receptor; type: cell-based; conditions: for IC50: DMR, acetylcholine 1 μM, 1 h pretreatment, time point 5 min; for antagonistic activity against the M1 receptor, in words: structure-activity comparison with parent compound
# T1 construct: expressed in transfected cells; host or cells: CHO-K1
# Protocol: (§1) The present invention relates to the antagonistic activity of the compound against the muscarinic receptor, which is primarily assessed by a cell-level dynamic mass redistribution (DMR) assay method. All tests are carried out on Epic platform, wherein the target model of the muscarinic receptor M1 is the CHO-K1 ceil model stably transfecting the M1 receptor, the target model of M3 is the HT-29 cell model endogenously highly expressing the M3 receptor, and the selected probe molecule is acetylcholine. Tire probe molecule acetylcholine is dissolved in water, while all other compounds are dissolved in DMSO.
# (§2) The inoculated cell plate is placed in a cell incubator for culture for 12 h until the cell growth and fusion degree reaches about 95%, and the activity assay is carried out. The culture medium is sucked from the cultured ceils, the buffer salt specified by the test is added with a volume of 30 μL per orifice and is stabilized for 1 h. After the baseline is stable, a 2-min baseline is established, and different concentrations of compounds to be tested are added to test the cultured cells for 1 h. After the cells are pretreated with the compounds to be tested for 1 h, the 2-min baseline is re-established, and acetylcholine having a concentration of 1 μM is added to test the cultured cells for 1 h.
# M3 receptor = molecular target: T2, M3 receptor (Homo sapiens, UniProt P20309); experiment: DMR assay, antagonism of acetylcholine in HT-29 cells endogenously expressing the M3 receptor; type: cell-based; conditions: for IC50: DMR, acetylcholine 16 μM, 1 h pretreatment, time point 30 min; for antagonistic activity against the M3 receptor, in words: structure-activity comparison with parent compound
# T2 construct: HT-29 cell model endogenously highly expressing the M3 receptor; endogenous in cells; host or cells: HT-29
# Protocol: as §1
# as §2, with “20” for “12”, “cells,” for “ceils,”, “h.” for “h. After the cells are pretreated with the compounds to be tested for 1 h, the 2-min baseline is re-established, and acetylcholine having a concentration of 1 μM is added to test the cultured cells for 1 h.”
# [1] = M1 Receptor IC50, CHO-K1-M1 cells
smiles,measurement,setting,value
"Cc1ccc(O)c(C(CC2CCCCN2C)c2ccccc2)c1 (single isomer, unassigned) [listing 1 of 3 here]",IC50,M1 receptor; [1],11.7 ± 1.6 nM
same,IC50,"M3 receptor; M3 Receptor IC50, HT-29 cells",40.7 ± 10.6 nM
CCc1ccc(O)c(C(CC2CCCCN2C)c2ccccc2)c1 (stereo not shown) [Hydrochloride],IC50,M1 receptor; [1],46.9 ± 3.3 nM
same,"antagonistic activity against the M1 receptor, in words",M1 receptor; Hydrochloride,decreased
same,IC50,"M3 receptor; M3 Receptor IC50, HT-29 cells",275 ± 248 nM
same,"antagonistic activity against the M3 receptor, in words",M3 receptor,decreased
"CN1CCCCC1CC(c1ccccc1)c1ccccc1O (stereo not shown) [I-2a-Cl, 2-[2-(2-hydroxy-phenyl)-phenethyl]-N-methylpiperidine hydrochloride]","antagonistic activity against the M1 receptor, in words",M1 receptor,decreased
same,"antagonistic activity against the M3 receptor, in words",M3 receptor,decreased
"Cc1ccc(O)c(C(CC2CCCCN2C)c2ccccc2)c1 (single isomer, unassigned) [listing 2 of 3 here]",IC50,M1 receptor; [1],31.7 ± 11.6 nM
same,IC50,"M3 receptor; M3 Receptor IC50, HT-29 cells",120 ± 35.9 nM
"Cc1ccc(O)c(C(CC2CCCCN2C)c2ccccc2)c1 (single isomer, unassigned) [listing 3 of 3 here]",IC50,M1 receptor; [1],11.7 ± 1.6 nM
same,IC50,"M3 receptor; M3 Receptor IC50, HT-29 cells",40.7 ± 10.6 nM
CCc1ccc(O)c(C(CC2CCCCN2C)c2ccccc2)c1 (stereo not shown) [listing 1 of 2 here],IC50,M1 receptor; [1],9.4 ± 1.3 nM
same,IC50,"M3 receptor; M3 Receptor IC50, HT-29 cells",109 ± 9 nM
"CN1CCCCC1CC(c1ccccc1O)c1ccccc1O (stereo not shown) [I-3-Cl, 2-[2,2-bis(2-hydroxyphenyl)-ethyl]-N-methylpiperidine Hydrochloride]","antagonistic activity against the M1 receptor, in words",M1 receptor,decreased
same,"antagonistic activity against the M3 receptor, in words",M3 receptor,decreased
CCc1ccc(O)c(C(CC2CCCCN2C)c2ccccc2)c1 (stereo not shown) [listing 2 of 2 here],IC50,"M1 receptor; CHO-K1-M1 cells, read-out: M1 Receptor IC50",45.6 ± 7.8 nM
same,IC50,"M3 receptor; HT-29 cells, read-out: M3 Receptor IC50",10.5 ± 1.1 nM
"Cc1ccc(O)c(C(CC2CCCCN2C)c2ccccc2)c1 (single isomer, unassigned) [Hydrochloride]",IC50,M1 receptor; [1],70.8 ± 9.2 nM
same,IC50,"M3 receptor; M3 Receptor IC50, HT-29 cells",290 ± 32.8 nM
Cc1ccc(O)c(C(CC2CCCCN2C)c2ccccc2)c1 (stereo not shown),IC50,M1 receptor; [1],26.5 ± 2.5 nM
same,IC50,"M3 receptor; M3 Receptor IC50, HT-29 cells",151 ± 15.3 nM
Cc1ccc(O)c(C(CC2CCCCN2C)c2ccccc2)c1 (stereo not shown) [Hydrochloride],"antagonistic activity against the M1 receptor, in words",M1 receptor,decreased
same,"antagonistic activity against the M3 receptor, in words",M3 receptor,decreased
"CN1CCCCC1CC(c1ccccc1)c1ccccc1O (single isomer, unassigned) [I-2a-Cl, 2-[2-(2-hydroxy-phenyl)-phenethyl]-N-methylpiperidine hydrochloride]",IC50,M1 receptor; [1],250 ± 176 nM
same,IC50,"M3 receptor; M3 Receptor IC50, HT-29 cells",74.6 ± 33.9 nM
"CN1CCCCC1CC(c1ccccc1)c1ccccc1O (stereo not shown) [II-2a, 2-[2-(2-hydroxy-phenyl)phenethyl]-N-methylpiperidine]",IC50,M1 receptor; [1],29.2 ± 6.5 nM
same,IC50,"M3 receptor; M3 Receptor IC50, HT-29 cells",36.5 ± 5 nM
